# In patent US20020177166A1, “Binding motif of a receptor” (MEDVET SCIENCE PTY.LTD., priority 2000, published 2002):
# Tests used:
# Assay type in all cases: cell-based
# CTL-EN cells = experiment: Cell cycle distribution, propidium iodide staining and flow cytometry; conditions: CTL-EN cells growing asynchronously in the presence of IL-2
# Description: Cells were then stimulated for a further 24 hours with 50 ng/ml IL-3 in the same medium after which the cells were harvested by centrifugation, fixed in ethanol and stained with propidium iodide. Cell cycle distribution was then analysed by flow cytometry. b) c-myc induction in response to IL-3 stimulation. CTL-EN cells were washed, starved and stimulated with IL-3 for 2 hours as described above. Total RNA was extracted and subjected to Northern blot analysis. Filters were probed sequentially with ^32P-labelled cDNAs for c-myc and 18SrRNA. Signals were detected by autoradiography.
# To determine if the signalling defect of the βcHSRSLP→EFAAAA receptor was specifically related to cell survival or if cell proliferation was also impaired, cell cycle progression in response to IL-3 was examined. CTL-EN cells were starved in medium containing 0.1% FCS and no IL-3 for 24 hours and then stimulated with IL-3 for up to 24 hours. The cells were then fixed in ethanol and the cell cycle distribution was examined by prodidium iodide staining and flow cytometry. Under these starvation conditions, nearly 90% of CTL-EN cells accumulate in the G0/G1 phase of the cell cycle (FIG. 16a). […] We also examined the regulation of c-myc mRNA expression in response to IL-3 by Northern blot analysis. The induction of c-myc is proposed to be an important pre-requisite for cell proliferation. […]
# 14-3-3 binding to βc = experiment: Co-immunoprecipitation of 14-3-3 with βc in CTL-EN cells; conditions: CTL-EN wtβc, 50 ng/ml IL-3
# Description: CTL-EN cells expressing IL-3Ra and either wtβc or βcHSRSLP→EFAAAA were washed, starved for 4 hours in DMEM containing 0.1% FCS and then stimulated with 50 ng/ml IL-3 for the indicated times. Cells were then lysed and the βc immunoprecipitated (7×10^7 cells/IP) with the 1C1 anti-βc specific mAb. Immunoprecipitates were divided and 80% or 20% were separately run on SDS-PAGE and transferred to nitrocellulose filters. (a) 80% of the immunoprecipitates were probed with the anti-phospho-Ser585βc antibody, the filters stripped, and reprobed with the 1C1 anti-βc mAb. 20% or the immunoprecipitates were probed with the 4G10 anti-phosphotyrosine antibody. (b) Regulation of 14-3-3 association with βc following IL-3 stimulation. […]
# The regulation of βcSer585 phosphorylation in response to IL-3 stimulation was then examined in these cell lines using anti-phospho-Ser585βc antibodies. […] Tyrosine phosphorylation of βc was detected for both the wtβc and the βcHSRSLP→EFAAAA mutant (FIG. 11a). […]
# To address the functional significance of 14-3-3 binding to βc cell lines were generated expressing either wild type (wt) or mutant IL-3 receptors lacking the 143-3 binding site. […] Immunoprecipitates were electrophoresed on a polyacrylamide gel and the amount of radiolabelled receptor immunoprecipitated was quantified using a phosphorImager. […]
# [1] = system: Ser585 phosphorylation of βc in MO7e cells; experiment: Ser585 phosphorylation and 14-3-3 recruitment in MO7e cells; conditions: endogenous IL-3 receptors
# Description: To address the functional significance of 14-3-3 binding to βc cell lines were generated expressing either wild type (wt) or mutant IL-3 receptors lacking the 143-3 binding site. […] The βc was immunoprecipitated and then subjected to immunoblot analysis using the anti-phospho-Ser585βc antibody. […] No association of 14-3-3 with the βcHSRSLP→EFAAAA or the βcS585G mutant controls in response to IL-3 was observed. […] The stoichiometry of Ser585 phosphorylation in response to IL-3 in vivo was also examined and compared to βc tyrosine phosphorylation. In these experiments, βc was immunoprecipitated from I^125 surface-labelled CTL-EN cells (to avoid detection of intracellular-only βc) with either anti-phosphorSer585, anti-phosphotyrosine or anti-βc antibodies from both IL-3-stimulated (+IL-3) or non-stimulated (−IL-3) cells expressing wtβc or βcS585G receptors. Immunoprecipitates were electrophoresed on a polyacrylamide gel and the amount of radiolabelled receptor immunoprecipitated was quantified using a phosphorImager. […] As we have previously reported (Stomski et al., 1996), immunoprecipitation of the βc from I^125 surface-labelled cells following IL-3 stimulation results in the co-immunoprecipitation of IL-3Rα. […]
Molecule,cells in G0/G1 phase (CTL-EN cells),14-3-3 binding to βc (14-3-3 binding to βc),Ser585 phosphorylation and 14-3-3 recruitment [1]
IL-2: IL-2 control cytokine,approximately 37%,,
"IL-3: recombinant human IL-3 produced in E. coli (protein, UniProt P08700 20-152, looked up) Interleukin-3: APMTQTTPLKTSWVNCSNMIDEIITHLKQPPLPLLDFNNLNGEDQDILMENNLRRPNLEAFNRAVKSLQNASAIESILKNLLPCLPLATAAPTRHPIHIKDGDWNEFRRKLTFYLKTLENAQAQQTTLSLAIF",,increased 14-3-3 binding to βc,increased Ser585 phosphorylation and 14-3-3 recruitment
